{
  "source": "patent US9243019B2",
  "about": "“Hydroxysafflor yellow A sodium and preparation as well as application thereof” (priority 2013, dated 2016)",
  "key": {"[1]": {"assay_type": "physicochemical", "conditions": "Table 4, accelerated for 1 month; hydroxysafflor yellow A by acidizing purity 99.2%, sodium salt purity 99.2%"}, "[2]": {"test_system": "blood viscosity", "conditions": "rabbit"}, "[3]": {"test_system": "cerebral basilar artery", "conditions": "phenylephrine tension; 10 mg/ml added every 5 min, 4-5 times"}, "[4]": {"test_system": "cerebral blood flow", "conditions": "medium and high dosage groups after intravenous injection"}, "[5]": {"test_system": "platelet aggregation of the rat", "conditions": "15 minutes flow"}, "[6]": {"test_system": "platelet aggregation induced by the ADP and the PAF", "conditions": "rabbit, intravenous once a day for 5 days, blood within 2 h after last injection"}, "[7]": {"test_system": "acute myocardial infarction", "experiment": "acute myocardial infarction of anesthetized dog by coronary artery ligation (ST segment elevation, infarction range)", "assay_type": "in vivo"}, "[8]": {"test_system": "coronary artery ring", "conditions": "phenylephrine tension; 10 mg/ml added every 5 min, 4-5 times"}, "[9]": {"test_system": "cerebral vascular permeability", "conditions": "medium and high dosage groups, intravenous once a day for 7 days"}, "[10]": {"conditions": "10 mg/kg intravenous injection, dog, 4 h"}},
  "note": "Where two headings read alike, the source gives them in different places.",
  "data": [
    {"compound": "O=C(/C=C/c1ccc(O)cc1)C1=C(O)C(O)(C2OC(CO)C(O)C(O)C2O)C(O)=C(C2OC(CO)C(O)C(O)C2O)C1=O", "note": "(stereo not shown) [Hydroxysafflor yellow A, hydroxysafflor yellow A]", "values": [
      {"measurement": "Content (counting Hydroxyl A)", "setting": "[1]", "result": 94.1, "unit": "%"}
    ]},
    {"compound": "hydroxysafflor yellow A sodium", "values": [
      {"measurement": "effect on blood viscosity of the high dosage group compared to positive control", "setting": "[2]; high dosage group", "result": "better than the positive control nimodipine injection group"},
      {"measurement": "blood viscosity indexes low-cut, medium-cut and high-cut compared to the solvent control group", "setting": "[2]; intravenous once a day for 5 days, 2 hour after last injection", "result": "decreased with increase of the dosage"},
      {"measurement": "relaxation effect on a cerebral vascular ring", "setting": "[3]", "result": 72.8, "unit": "%"},
      {"measurement": "cerebral blood flow", "setting": "[4]", "result": "effect of increasing the blood flow"},
      {"measurement": "maintaining time of the blood flow increase", "setting": "[4]", "result": "about 15 min"},
      {"measurement": "weight of the platelet adhered", "setting": "[5]; high dosage group", "result": "9.02 ± 1.29", "unit": "mg"},
      {"measurement": "weight of the platelet adhered", "setting": "[5]; low dosage group", "result": "13.8 ± 1.95", "unit": "mg"},
      {"measurement": "weight of the platelet adhered", "setting": "[5]; medium dosage group", "result": "9.87 ± 1.50", "unit": "mg"},
      {"measurement": "preventing the platelet aggregation induced by the ADP and the PAF", "setting": "[6]", "result": "sufficient effect on presenting the platelet aggregation"},
      {"measurement": "Dangerous area", "setting": "[7]; [10]", "result": "13.1 ± 3.8", "unit": "g"},
      {"measurement": "Infarcted area", "setting": "[7]; [10]", "result": "2.2 ± 0.3", "unit": "g"},
      {"measurement": "Infarction rate %", "setting": "[7]; [10]", "result": "18.1 ± 5.8", "unit": "%"},
      {"measurement": "ST segment elevation compared to the saline group", "setting": "[7]; 5 min-4 h after injection", "result": "significantly decreased"},
      {"measurement": "ST segment elevation", "setting": "[7]; 5 min, 10 mg/kg intravenous injection, dog", "result": 0.84},
      {"measurement": "ST segment elevation", "setting": "[7]; 15 min, 10 mg/kg intravenous injection, dog", "result": 0.81},
      {"measurement": "ST segment elevation", "setting": "[7]; 30 min, 10 mg/kg intravenous injection, dog", "result": 0.78},
      {"measurement": "ST segment elevation", "setting": "[7]; 1 h, 10 mg/kg intravenous injection, dog", "result": 0.72},
      {"measurement": "ST segment elevation", "setting": "[7]; 2 h, 10 mg/kg intravenous injection, dog", "result": 0.61},
      {"measurement": "ST segment elevation", "setting": "[7]; 3 h, 10 mg/kg intravenous injection, dog", "result": 0.48},
      {"measurement": "ST segment elevation", "setting": "[7]; 4 h, 10 mg/kg intravenous injection, dog", "result": 0.33},
      {"measurement": "myocardial infarction range", "setting": "[7]; anesthetized dog processed with thoracotomy", "result": "significantly decrease"},
      {"measurement": "effect on preventing myocardial ischemic necrosis compared to the safflor yellow injection", "setting": "[7]; dog", "result": "better effect"},
      {"measurement": "relaxation effect on a cardiac vascular ring", "setting": "[8]", "result": 30.9, "unit": "%"},
      {"measurement": "Evans blue leached from the cerebral vascular", "setting": "[9]", "result": "significant effects on reducing the Evans blue leached from the cerebral vascular"}
    ]}
  ]
}
